# Test results from patent publication US8633183B2 (priority 2010, dated 2014).
# Sequences of proteins named here, by UniProt entry; tags and fusion partners are left off.
# UniProt P42336, whole entry, looked up: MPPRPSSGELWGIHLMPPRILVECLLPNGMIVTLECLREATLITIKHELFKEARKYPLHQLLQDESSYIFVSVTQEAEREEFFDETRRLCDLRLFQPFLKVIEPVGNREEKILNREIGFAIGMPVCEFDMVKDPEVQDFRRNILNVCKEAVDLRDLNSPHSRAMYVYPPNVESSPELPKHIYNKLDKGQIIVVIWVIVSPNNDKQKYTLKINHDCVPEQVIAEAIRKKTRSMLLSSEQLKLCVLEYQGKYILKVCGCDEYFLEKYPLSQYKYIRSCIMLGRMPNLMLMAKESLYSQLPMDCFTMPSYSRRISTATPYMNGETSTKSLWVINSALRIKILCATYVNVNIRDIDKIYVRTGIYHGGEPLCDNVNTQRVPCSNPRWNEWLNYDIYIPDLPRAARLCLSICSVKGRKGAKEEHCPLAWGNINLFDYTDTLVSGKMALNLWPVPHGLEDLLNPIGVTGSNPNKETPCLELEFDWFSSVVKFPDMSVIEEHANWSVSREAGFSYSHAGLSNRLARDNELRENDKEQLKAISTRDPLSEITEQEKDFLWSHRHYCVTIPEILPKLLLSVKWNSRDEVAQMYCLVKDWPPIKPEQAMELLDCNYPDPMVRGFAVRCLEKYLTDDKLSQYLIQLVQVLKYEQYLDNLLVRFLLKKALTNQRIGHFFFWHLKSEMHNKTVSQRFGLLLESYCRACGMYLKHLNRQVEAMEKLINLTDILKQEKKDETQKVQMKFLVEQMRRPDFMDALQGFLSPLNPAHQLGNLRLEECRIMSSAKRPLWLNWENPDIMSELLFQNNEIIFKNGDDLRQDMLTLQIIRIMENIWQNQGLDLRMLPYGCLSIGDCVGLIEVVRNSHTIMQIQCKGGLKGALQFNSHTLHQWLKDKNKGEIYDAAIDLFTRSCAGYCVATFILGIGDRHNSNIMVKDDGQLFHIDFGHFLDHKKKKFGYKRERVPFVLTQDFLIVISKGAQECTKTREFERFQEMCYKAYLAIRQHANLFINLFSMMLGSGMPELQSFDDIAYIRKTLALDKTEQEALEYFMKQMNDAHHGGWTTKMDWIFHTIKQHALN
# Biological target: PI3Kalpha (Homo sapiens (Human), UniProt P42336)
# Conditions: read-out: IC50 PI3K
row,SMILES,IC50
1,CCc1ncnc(-c2ccc(C(=O)N3CCC(C)(O)CC3)c(C)c2)c1C#Cc1ccc(N)nc1 [Example E-122],62.8 nM
2,CCc1ncnc(-c2ccc(C(=O)N3CCC(N(C)C)C3)c(C)c2)c1C#Cc1ccc(N)nc1 (stereo not shown) [Example E-125],161 nM
3,CCc1ncnc(-c2ccc(C(=O)N3CCC(N4CCCC4)CC3)c(C)c2)c1C#Cc1ccc(N)nc1 [Example E-126],195 nM
4,CCc1ncnc(-c2cc(F)c(C(=O)N3CCN(CCNS(C)(=O)=O)CC3)c(F)c2)c1C#Cc1ccc(N)nc1 [Example E-152],67.8 nM
5,CCc1ncnc(-c2cc(F)c(C(=O)N3CCn4ccnc4C3)c(Cl)c2)c1C#Cc1ccc(N)nc1 [Example E-155],15.5 nM
6,CCc1ncnc(-c2cc(F)c(C(=O)N(C)CCN(C)C)c(F)c2)c1C#Cc1ccc(N)nc1 [Example E-171],358 nM
7,CCc1ncnc(-c2cc(F)c(C(=O)N3CCC(F)(F)CC3)c(F)c2)c1C#Cc1ccc(N)nc1 [Example E-173],164 nM
